The target of one experiment is D2 receptor (Homo sapiens (Human), UniProt P14416). Put plainly: Radioligand binding ([3H]-spiperone) to cloned D2 receptor expressed in HEK-293 EBNA cells. The note with it: HEK293 EBNA membranes, 0.7 nM [3H]-spiperone. How it is done:
HEK293 EBNA cells were transiently transfected with expression plasmids encoding for the human D2 or D3 or for the human 5-HT2A receptor, respectively. The cells were harvested 48 h post-transfection, washed three times with cold PBS and stored at −80° C. prior to use. The pellet was suspended in cold 50 mM Tris-HCl buffer containing 10 mM EDTA (pH 7.4) and was homogenized with a Polytron (Kinematica AG, Basel, Switzerland) for 20-30 sec at 12.000 rpm. After centrifugation at 48.000×g for 30 min at 4° C., the pellet was resuspended in cold 10 mM Tris-HCl buffer containing 0.1 mM EDTA (pH 7.4), homogenized, and centrifuged as above. […] The protein content of this homogenate was determined with the Bio-Rad (Bradford) Protein Assay (Biorad Laboratories GmbH, München, Germany) according to the instructions of the manufacturer using gamma globulin as the standard. […]
The binding affinity (Ki) of the compounds was determined using radioligand binding. […] The nonspecific binding was determined with equally composed reaction mixtures in the presence of 10 μM unlabelled spiperone. Per well 45 μl of Microscint 40 (Perkin Elmer, Schwerzenbach, Switzerland) was added, plates for sealed, shaken for 20 min and counted for 3 min on a Topcount Microplate Scintillation Counter (Canberra Packard SA, Zürich, Switzerland) with quenching correction. […]

Chains of the proteins cited; added tags and fusions are not shown.
UniProt P14416, whole entry: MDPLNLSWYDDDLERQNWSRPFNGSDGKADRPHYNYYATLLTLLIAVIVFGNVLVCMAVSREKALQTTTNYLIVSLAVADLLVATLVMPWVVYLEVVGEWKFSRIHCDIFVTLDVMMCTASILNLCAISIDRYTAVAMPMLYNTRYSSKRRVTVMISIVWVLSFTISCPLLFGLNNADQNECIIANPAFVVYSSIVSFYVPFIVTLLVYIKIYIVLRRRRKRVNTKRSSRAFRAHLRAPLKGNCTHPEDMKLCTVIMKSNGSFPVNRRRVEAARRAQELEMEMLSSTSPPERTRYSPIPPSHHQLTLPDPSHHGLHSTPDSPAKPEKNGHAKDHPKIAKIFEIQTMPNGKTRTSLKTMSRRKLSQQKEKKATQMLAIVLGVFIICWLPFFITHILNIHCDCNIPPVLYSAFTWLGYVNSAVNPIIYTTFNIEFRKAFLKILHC
UniProt P35462, whole entry: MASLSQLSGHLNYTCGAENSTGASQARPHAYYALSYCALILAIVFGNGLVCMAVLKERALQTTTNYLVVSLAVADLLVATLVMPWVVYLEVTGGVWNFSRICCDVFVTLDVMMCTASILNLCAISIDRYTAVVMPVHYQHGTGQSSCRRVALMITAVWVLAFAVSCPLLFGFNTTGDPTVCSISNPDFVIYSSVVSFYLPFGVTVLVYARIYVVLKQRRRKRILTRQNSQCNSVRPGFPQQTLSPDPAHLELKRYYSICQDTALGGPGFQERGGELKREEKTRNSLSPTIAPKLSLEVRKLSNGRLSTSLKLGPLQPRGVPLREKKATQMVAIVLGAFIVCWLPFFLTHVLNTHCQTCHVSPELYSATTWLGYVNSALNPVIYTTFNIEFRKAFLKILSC

A further experiment deals with D3 receptor (Homo sapiens (Human), UniProt P35462). As to the kind of experiment: Radioligand binding ([3H]-spiperone) to cloned D3 receptor expressed in HEK-293 EBNA cells. Particulars: HEK293 EBNA membranes, 0.5 nM [3H]-spiperone. How it is done: HEK293 EBNA cells were transiently transfected with expression plasmids encoding for the human D2 or D3 or for the human 5-HT2A receptor, respectively. The cells were harvested 48 h post-transfection, washed three times with cold PBS and stored at −80° C. prior to use. The pellet was suspended in cold 50 mM Tris-HCl buffer containing 10 mM EDTA (pH 7.4) and was homogenized with a Polytron (Kinematica AG, Basel, Switzerland) for 20-30 sec at 12.000 rpm. After centrifugation at 48.000×g for 30 min at 4° C., the pellet was resuspended in cold 10 mM Tris-HCl buffer containing 0.1 mM EDTA (pH 7.4), homogenized, and centrifuged as above. This pellet was further resuspended in a smaller volume of ice cold 10 mM Tris-HCl buffer containing 0.1 mM EDTA (pH 7.4) and homogenized with a Polytron for 20-30 sec at 12.000 rpm. The protein content of this homogenate was determined with the Bio-Rad (Bradford) Protein Assay (Biorad Laboratories GmbH, München, Germany) according to the instructions of the manufacturer using gamma globulin as the standard. This homogenate was stored at −80° C. in aliquots and thawed immediately prior to use.
Radioligand Binding Assay
Aliquots of membrane preparations were thawed at RT, resupended in assay buffer (D2, D3: 50 mM Tris-HCl, 120 mM NaCl, 5 mM MgCl2, 1 mM EDTA, 5 mM KCl, 1.5 mM CaCl2, pH=7.4; 5-HT2A: 50 mM Tris-HCl, 10 mM MgCl2, 1 mM EGTA, pH=7.4), homogenized with a Polytron for 20-30 sec at 12.000 rpm and adjusted to a final concentration of approximately 7.5 μg protein/well (D2, D3) and 15 μg protein/well (5-HT2A), respectively.
The binding affinity (Ki) of the compounds was determined using radioligand binding. […] The nonspecific binding was determined with equally composed reaction mixtures in the presence of 10 μM unlabelled spiperone. Per well 45 μl of Microscint 40 (Perkin Elmer, Schwerzenbach, Switzerland) was added, plates for sealed, shaken for 20 min and counted for 3 min on a Topcount Microplate Scintillation Counter (Canberra Packard SA, Zürich, Switzerland) with quenching correction.
The CPM value for each duplicate of a concentration of competing compound was averaged (y1), then the % specific binding was calculated according to the equation (((y1−non-specific)/(total binding−non-specific))×100). […] The affinity constant (Ki) was calculated using the Cheng-Prusoff equation Ki=(IC50/1+([L]/Kd), where [L] is the concentration of radioligand and Kd is the dissociation constant of the radioligand at the receptor as determined by the saturation isotherm.

Data on six compounds can be found in patent US8722683B2, “Benzodioxole piperazine compounds” (Hoffmann LA-Roche Inc., priority 2011, dated 2014).

By Ki is commonly meant a dissociation constant, usually derived from enzyme kinetics or from competition with a known ligand. On D2 receptor, `O=S(=O)(N[C@H]1CC[C@H](CCN2CCN(c3cccc4c3OCO4)CC2)CC1)c1ccccc1` [Example 67, N-trans-{4-[2-(4-Benzo[1,3]dioxol-4-yl-piperazin-1-yl)-ethyl]-cyclohexyl}-benzenesulfonamide] returned a Ki of 72.4 nM.

`O=C(C[C@H]1CCCOC1)N[C@H]1CC[C@H](CCN2CCN(c3cccc4c3OCO4)CC2)CC1` (single isomer, unassigned) [Example 33, Trans-N-{4-[2-(4-Benzo[1,3]dioxol-4-yl-piperazin-1-yl)-ethyl]-cyclohexyl}-2-(R) or (S)-tetrahydro-pyran-3-yl-acetamide]: the inhibition constant (Ki) on D3 receptor turned out to be 3.92 nM.

Take `[2H]C1([2H])Oc2cccc(N3CCN(CC[C@H]4CC[C@H](NC(=O)C[C@H]5COCCO5)CC4)CC3)c2O1` [Example 78, N-trans-{4-[2-(4-Benzo(2,2-D2)-[1,3]dioxol-4-yl-piperazin-1-yl)-ethyl]-cyclohexyl}-2-(S)-[1,4]dioxan-2-yl-acetamide]: the Ki at D3 receptor stood at 2.46 nM. For the compound `O=C(CC1COCCO1)N[C@H]1CC[C@H](CCN2CCN(c3cccc4c3OCO4)CC2)CC1` (stereo partly drawn) [Example 3, Trans-N-{4-[2-(4-Benzo[1,3]dioxol-4-yl-piperazin-1-yl)-ethyl]-cyclohexyl}-2-[1,4]dioxan-2-yl-acetamide], at D3 receptor, the Ki was 2.56 nM. The compound `Cn1cnc(S(=O)(=O)N[C@H]2CC[C@H](CCN3CCN(c4cccc5c4OCO5)CC3)CC2)c1` [Example 69, 1-Methyl-1H-imidazole-4-sulfonic acid-trans-N-{4-[2-(4-benzo[1,3]dioxol-4-yl-piperazin-1-yl)-ethyl]-cyclohexyl}-amide] had a Ki on D2 receptor of 55.3 nM.

For the compound `O=C(C[C@@H]1CCCOC1)N[C@H]1CC[C@H](CCN2CCN(c3cccc4c3OCO4)CC2)CC1` (single isomer, unassigned) [Example 32, Trans-N-{4-[2-(4-Benzo[1,3]dioxol-4-yl-piperazin-1-yl)-ethyl]-cyclohexyl}-2-(S) or (R)-tetrahydro-pyran-3-yl-acetamide], on D3 receptor, the Ki is 2.99 nM.
